Data set [1] in a line: Differential Scanning calorimetry (DSC) thermostability. The class given is physicochemical. The following applies: parent Fab region. An excerpt: Differential Scanning calorimetry (DSC) was used to compare the thermostability of parent and engineered antibodies. DSC is a thermodynamical tool for direct assessment of the heat energy uptake, which occurs in a sample within a regulated increase or decrease in temperature. DSC is commonly employed to assess the thermal and conformational stability of a protein. The melting temperature of a protein, or of individual domains, can be obtained from the DSC profile, and if the reaction is reversible the thermodynamic parameters of the unfolding can be determined. A protein is considered more thermostable when the Tm (transition temperature) is higher. When thermostability data are compared to other bioanalytical methods, like size exclusion chromatography (SEC), it has been observed that a correlation between greater thermostability (higher Tm) and decreased aggregation. Antibodies with a higher Tm and decreased aggregation formation have the potential for improved long-term stability thus potentially making better biotherapeutics.
DSC was carried out using a MicroCal™ VP-Capillary DSC system (GE Healthcare, Piscataway, N.J.) equipped with an auto-sampler. The temperature differences between the reference and sample cells are continuously measured, and calibrated to power units. For example, the full-length antibodies shown in TABLE 10 were diluted to 0.5 mg/mL in a buffered solution. The solution reference and protein samples were measured in a 135 μL cell from 20 to 110° C. at a heating rate of 60° C./hour. The pre-scan was set at 15 minutes while the filtering period was 10 seconds. Signal from the blank buffer solution was used for baseline subtraction. The data analysis was performed using MicroCal™ Origin 7 software. Heat capacity during protein melting was calculated by normalizing over protein concentration.

A further data set deals with KMS11. Briefly: CellTiter-Glo Luminescent Cell Viability Assay, KMS11. The class given is cell-based, human. As for the experimental part: (§1) The ADCs were tested for the ability to target and kill BCMA-expressing myeloma cells. The CellTiter-Glo® Luminescent Cell Viability Assay is a homogeneous method to determine the number of viable cells in culture based on quantitation of the ATP present, which signals the presence of metabolically active cells. The CellTiter-Glo® Assay is applicable to cytotoxicity assays (see http://www.promega.com/products/cell-health-assays/cell-viability-assays/celltiterglo-luminescent-cell-viability-assay/ for more information). The cell viability assay was used to assess the relative killing capacity of various ADCs on various multiple myeloma cell lines and B-cell lines. […] Luminescence was read on an EnVision™ Multilabel reader (PerkinElmer) or Analyst HT plate reader (LJL Biosciences). The data was analyzed and graphed using GraphPad Prism™ to determine the relative efficacy of the ADCs on various cancer cell lines.
(§2) The 2A1CV5-MCC-DM1, 32B5-MCC-DM1 and 29C12-MCC-DM1 ADCs were tested for the ability to target and kill BCMA-expressing myeloma cells (H929). The CellTiter-Glo® Luminescent Cell Viability Assay is a homogeneous method to determine the number of viable cells in culture based on quantitation of the ATP present, which signals the presence of metabolically active cells. […] Luminescence was read on an EnVision™ Multilabel reader (PerkinElmer) or Analyst HT plate reader (LJL Biosciences). […]
(In ATP-based viability assays light output follows the ATP content of the culture.)

A further data set relates to KMS26. The data set is described as follows: CellTiter-Glo Luminescent Cell Viability Assay, KMS26. The class given is cell-based, human. As for the experimental part:
as §1, §2

B1: 2A1: parental fully human anti-huBCMA mAb, Vh SEQ ID NO:214, Vl SEQ ID NO:248; heavy chain SEQ ID NO:287, light chain 288 (antibody)
heavy: EVQLVESGGGLVKPGRSLRLSCTASGFTFGDYALSWFRQAPGKGLEWVGVSRSKAYGGTTDYAASVKGRFTISRDDSKSFAYLQMNSLKTEDTAVYYCCSSGYSSGWTPFDYWGQGTLVTVSSASTKGPSVFPLAPSSKSTSGGTAALGCLVKDYFPEPVTVSWNSGALTSGVHTFPAVLQSSGLYSLSSVVTVPSSSLGTQTYICNVNHKPSNTKVDKKV[omitted - human IgG1 Fc]
light: QSVLTQPPSASGTPGQRVTISCSGSSSNIGSNTVNWYQQLPGTAPKLLIFNYHQRPSGVPDRFSGSKSGSSASLAISGLQSEDEADYYCAAWDDSLNGWVFGGGTELTVLGQPKAAPSVTLFPPSSEELQANKATLVCLISDFYPGAVTVAWKADSSPVKAGVETTTPSKQSNNKYAASSYLSLTPEQWKSHRSYSCQVTHEGSTVEKTVAPTECS
Regarding B1, the “Tm Fab” value in data set [1] worked out at 66 °C.

B2: 2A1CV5-MCC-DM1 (conjugate)
heavy: EVQLVESGGGLVKPGGSLRLSCAASGFTFGDYALSWFRQAPGKGLEWVGVSRSKAYGGTTDYAASVKGRFTISRDDSKSTAYLQMNSLKTEDTAVYYCASSGYSSGWTPFDYWGQGTLVTVSSASTKGPSVFPLAPSSKSTSGGTAALGCLVKDYFPEPVTVSWNSGALTSGVHTFPAVLQSSGLYSLSSVVTVPSSSLGTQTYICNVNHKPSNTKVDKKV[omitted - human IgG1 Fc]
light: QSVLTQPPSASGTPGQRVTISCSGSSSNIGSNTVNWYQQLPGTAPKLLIFNYHQRPSGVPDRFSGSKSGSSASLAISGLQSEDEADYYCAAWDDSLNGWVFGGGTKLTVLGQPKAAPSVTLFPPSSEELQANKATLVCLISDFYPGAVTVAWKADSSPVKAGVETTTPSKQSNNKYAASSYLSLTPEQWKSHRSYSCQVTHEGSTVEKTVAPTECS
With B2, the “Cell line killed by BCMA ADC” value in the data set on KMS11 and in the data set on KMS26 was “Yes” each time.

For the origin of these results see patent US10465009B2, “BCMA antigen binding proteins” (Amgen Inc., priority 2012, dated 2019).
